Measurements as given in US5356904A, “Carbostyril oxytocin receptor antagonists” (Merck & Co., Inc., priority 1992, dated 1994).

Chains of the proteins cited; added tags and fusions are not shown. Lines headed by an entry give the natural chain unless they say otherwise; changes in a name come on top.
UniProt P70536: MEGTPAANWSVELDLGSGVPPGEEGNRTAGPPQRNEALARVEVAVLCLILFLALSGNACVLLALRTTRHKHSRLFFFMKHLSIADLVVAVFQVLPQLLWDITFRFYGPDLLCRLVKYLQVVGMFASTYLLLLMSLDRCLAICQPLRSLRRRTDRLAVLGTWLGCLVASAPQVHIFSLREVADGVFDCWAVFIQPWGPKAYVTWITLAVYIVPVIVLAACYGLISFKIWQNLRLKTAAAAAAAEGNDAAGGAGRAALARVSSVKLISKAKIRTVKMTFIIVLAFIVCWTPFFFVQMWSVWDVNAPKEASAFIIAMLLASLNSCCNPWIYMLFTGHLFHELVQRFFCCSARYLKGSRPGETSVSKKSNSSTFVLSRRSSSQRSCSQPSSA
UniProt Q00788, whole entry, looked up: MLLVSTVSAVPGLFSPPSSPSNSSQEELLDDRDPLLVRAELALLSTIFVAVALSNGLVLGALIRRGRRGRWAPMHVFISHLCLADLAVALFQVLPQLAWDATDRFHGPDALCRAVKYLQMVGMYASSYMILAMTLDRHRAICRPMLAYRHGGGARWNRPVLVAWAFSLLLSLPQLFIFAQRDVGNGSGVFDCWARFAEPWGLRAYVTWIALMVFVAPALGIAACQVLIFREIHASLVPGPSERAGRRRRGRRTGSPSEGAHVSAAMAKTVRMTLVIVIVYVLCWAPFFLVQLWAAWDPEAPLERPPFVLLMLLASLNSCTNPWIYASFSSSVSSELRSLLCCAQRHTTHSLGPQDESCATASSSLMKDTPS
UniProt P30560, whole entry, looked up: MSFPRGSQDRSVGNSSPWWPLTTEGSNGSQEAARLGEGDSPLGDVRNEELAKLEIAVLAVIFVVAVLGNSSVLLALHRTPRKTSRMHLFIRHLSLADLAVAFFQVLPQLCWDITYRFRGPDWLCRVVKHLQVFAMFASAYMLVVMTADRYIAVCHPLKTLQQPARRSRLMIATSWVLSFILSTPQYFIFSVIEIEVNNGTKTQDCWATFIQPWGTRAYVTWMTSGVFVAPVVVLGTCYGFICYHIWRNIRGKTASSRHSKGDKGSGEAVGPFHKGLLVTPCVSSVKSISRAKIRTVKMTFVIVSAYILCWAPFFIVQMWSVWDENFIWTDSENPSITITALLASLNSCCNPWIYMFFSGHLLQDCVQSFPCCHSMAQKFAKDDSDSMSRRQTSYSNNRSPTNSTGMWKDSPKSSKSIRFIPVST

Key:
uterine OT receptors = uterine OT receptors (Rattus norvegicus, UniProt P70536); test: [3H]oxytocin (OT) radioligand binding, uterine membranes
AVP-V2 sites = AVP-V2 sites (Rattus norvegicus, UniProt Q00788); test: [3H]vasopressin (AVP) radioligand binding, kidney medulla membranes (AVP-V2 sites); conditions: @ 3 uM
AVP-V1 sites = AVP-V1 sites (Rattus norvegicus, UniProt P30560); test: [3H]vasopressin (AVP) radioligand binding, liver membranes (AVP-V1 sites); conditions: @ 3 uM

Structure (SMILES) | % Inhibition rat OT (uterine OT receptors; @ 10 uM) [%] | further results
Cc1ccc(C(=O)N2CCC(N3C(=O)CCc4ccccc43)CC2)cc1 | 73 | –
O=C(c1ccccc1)N1CCC(N2C(=O)CCc3ccccc32)CC1 | 69 | –
O=C(c1ccc([N+](=O)[O-])cc1)N1CCC(N2C(=O)CCc3ccccc32)CC1 | 57 | –
O=C(c1ccc(F)cc1)N1CCC(N2C(=O)CCc3ccccc32)CC1 | 69 | –
CCc1ccc(C(=O)N2CCC(N3C(=O)CCc4ccccc43)CC2)cc1 | 80 | –
CCCCOc1ccc(C(=O)N2CCC(N3C(=O)CCc4ccccc43)CC2)cc1 | – | % Inhibition rat OT (uterine OT receptors; @ 1 uM): 38%
N#Cc1ccc(C(=O)N2CCC(N3C(=O)CCc4ccccc43)CC2)cc1 | 52 | % Inhibition rat V2 (AVP-V2 sites): 3%; % Inhibition rat V1 (AVP-V1 sites): 59%
